Reference: article PMC4207771, “Identification and Characterization of Novel Renal Sensory Receptors” (PLoS ONE, 2014)
“Also recorded” adds a separate entry of the source.

Legend:
Olfr691 [1] = target: T1, Olfr691 (Mus musculus, UniProt Q8VGW5); design: method as in PMID 15550249; conditions: cited from earlier work
T1 construct: Lucy (N); expressed in transfected cells; host or cells: HEK293T, co-transfected with RTP1S
T1 sequence (Q8VGW5 1-322): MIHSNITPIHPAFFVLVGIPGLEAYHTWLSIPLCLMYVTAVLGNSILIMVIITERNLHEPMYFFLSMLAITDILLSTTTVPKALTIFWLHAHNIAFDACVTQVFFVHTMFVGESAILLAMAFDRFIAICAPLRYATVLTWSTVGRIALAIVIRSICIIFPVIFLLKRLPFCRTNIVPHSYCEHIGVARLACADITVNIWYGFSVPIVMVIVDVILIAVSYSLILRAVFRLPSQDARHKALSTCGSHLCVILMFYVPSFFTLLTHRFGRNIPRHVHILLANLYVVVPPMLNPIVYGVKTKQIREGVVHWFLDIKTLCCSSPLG

Olfr691 [2] = target: T1, Olfr691; assay: dual-luciferase (cAMP/CREB reporter) ligand screen, Olfr691 in HEK293T cells; type: cell-based; design: key to Olfr691 response in dual-luciferase assay: ‘+’ or ‘–‘ in each column indicates if the olfactory receptor responded or had no effect to that specific chemical; -: ‘+’ or ‘–‘ in each column indicates if the olfactory receptor responded or had no effect to that specific chemical
Olfr31 = target: T2, Olfr31 (Mus musculus, UniProt Q3KPA7); assay: dual-luciferase (cAMP/CREB reporter) ligand screen, Olfr31 in HEK293T cells; type: cell-based; design: key: ‘+’ or ‘–‘ in each column indicates if the olfactory receptor responded or had no effect to that specific chemical; -: ‘+’ or ‘–‘ in each column indicates if the olfactory receptor responded or had no effect to that specific chemical; conditions: chemicals tested individually, screened at 500uM (* also at 100uM)
T2 construct: expressed in transfected cells; host or cells: HEK293T, co-transfected with RTP1S
T2 sequence (Q3KPA7 1-317): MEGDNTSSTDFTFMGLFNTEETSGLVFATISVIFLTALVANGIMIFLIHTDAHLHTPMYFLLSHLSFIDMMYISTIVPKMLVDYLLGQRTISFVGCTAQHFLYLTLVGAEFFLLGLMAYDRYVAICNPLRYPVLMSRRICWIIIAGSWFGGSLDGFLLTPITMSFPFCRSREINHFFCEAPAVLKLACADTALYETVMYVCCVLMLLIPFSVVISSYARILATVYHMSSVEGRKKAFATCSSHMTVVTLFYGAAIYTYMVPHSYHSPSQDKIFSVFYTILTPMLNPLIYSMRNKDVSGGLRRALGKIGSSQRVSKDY

In the case of `CC(C)CC(=O)O` [isovaleric acid], the “previously reported ligand of Olfr691” value (Olfr691 [1]) is given as “previously reported”, the “Relative response at 0.5mM” value (Olfr691 [2]; 0.5 mM ligand, normalized to the response of Olfr691 to the strongest ligand, 4-pentenoate, listed as Isovalerate) is given as 73 ± 4.8 and the “Olfr691 response in dual-luciferase assay” value (Olfr691 [2]; chemicals tested individually, screened at 500uM (* also at 100uM)) is given as “+”. For the same molecule, the “Olfr691 response (in words)” value (Olfr691 [2]; luciferase assay, co-expressed with RTP1S, listed as isovalerate) was “dose dependent manner; also recorded: able to confirm” and the “Olfr31 response in dual-luciferase assay” value (Olfr31) was “-”.
